Protein sequences, listed by entry. Tags and fused reporters are not part of them. Lines headed by an entry give the natural chain unless they say otherwise; changes in a name come on top.
UniProt Q06187: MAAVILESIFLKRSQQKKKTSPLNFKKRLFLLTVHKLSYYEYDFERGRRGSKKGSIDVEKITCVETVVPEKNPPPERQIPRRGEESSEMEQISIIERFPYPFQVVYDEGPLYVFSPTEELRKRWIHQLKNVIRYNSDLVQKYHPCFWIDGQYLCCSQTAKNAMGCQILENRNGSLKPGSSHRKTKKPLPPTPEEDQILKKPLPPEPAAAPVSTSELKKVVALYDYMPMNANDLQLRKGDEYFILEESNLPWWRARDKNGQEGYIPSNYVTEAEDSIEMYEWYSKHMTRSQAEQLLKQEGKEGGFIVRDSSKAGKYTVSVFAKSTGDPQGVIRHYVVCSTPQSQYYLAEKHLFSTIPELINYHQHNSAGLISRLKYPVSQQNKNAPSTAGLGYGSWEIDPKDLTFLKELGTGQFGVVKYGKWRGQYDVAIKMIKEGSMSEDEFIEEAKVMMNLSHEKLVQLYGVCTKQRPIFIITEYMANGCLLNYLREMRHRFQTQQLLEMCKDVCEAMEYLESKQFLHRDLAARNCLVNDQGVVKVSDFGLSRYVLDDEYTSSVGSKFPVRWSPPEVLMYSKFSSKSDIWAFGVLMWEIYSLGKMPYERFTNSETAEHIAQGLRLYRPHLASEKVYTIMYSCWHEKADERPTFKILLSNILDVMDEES

According to patent publication US9090621B2, “Tyrosine kinase inhibitors” (Principia Biopharma Inc., priority 2013, dated 2015):

How the values were obtained:
human recombinant Btk [1] = target: T1, human recombinant Btk (Homo sapiens (Human), UniProt Q06187); experiment: biochemical;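 note: Read-out is the quantity of phosphorylated substrate product formed, and IC50 reflects inhibition of Btk kinase activity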
human recombinant Btk [2] = target: T1, human recombinant Btk; conditions: Caliper-based kinase assay; human recombinant Btk 2 nM, ATP 40 μM, peptide substrate 1 μM, room temperature 3 h

| SMILES | IC50 (human recombinant Btk [1]) | IC50 (human recombinant Btk [2]) |
| --- | --- | --- |
| N#CC(=CC1CC1)C(=O)N1CCC[C@@H](n2cc(-c3ccc(Oc4ccccc4)cc3F)c3c(N)ncnc32)C1 [Example 56A, (R)-2-(3-(4-amino-5-(2-fluoro-4-phenoxyphenyl)-7H-pyrrolo[2,3-d]pyrimidin-7-yl)piperidine-1-carbonyl)-3-cyclopropylacrylonitrile] | 3.3 nM |  |
| N#CC(=CC1CC1)C(=O)N1CCC[C@@H]1Cn1nc(-c2ccc(Oc3ccccc3)cc2Cl)c2c(N)ncnc21 [Example 70A, (R)-2-(2-((4-amino-3-(2-chloro-4-phenoxyphenyl)-1H-pyrazolo[3,4-d]pyrimidin-1-yl)methyl)pyrrolidine-1-carbonyl)-3-cyclopropylacrylonitrile] | 11 nM |  |
| CC(C)C=C(C#N)C(=O)N1CCC[C@@H]1Cn1nc(-c2ccc(Oc3cc(F)ccc3F)cc2)c2c(N)ncnc21 [Example 71A, (R)-2-(2-((4-amino-3-(4-(2,5-difluorophenoxy)phenyl)-1H-pyrazolo[3,4-d]pyrimidin-1-yl)methyl)pyrrolidine-1-carbonyl)-4-methylpent-2-enenitrile] | 7 nM |  |
| CCN(CC)C(C)(C)C=C(C#N)C(=O)N1CCC[C@@H]1Cn1cc(-c2ccc(Oc3ccccc3)cc2)c2c(N)ncnc21 [Example 180B] |  | 4 nM |
| N#C/C(=C\C1CCCN1)C(=O)N1CCC[C@H]1Cn1nc(-c2ccc(Oc3ccccc3)cc2F)c2c(N)ncnc21 (some centres unmarked) [Example 186] |  | 3.7 nM |

Like-named read-outs stand apart in the source and are kept apart here.
